ChEMBL document CHEMBL2086292, “Chalcogenopyrylium compounds as modulators of the ATP-binding cassette transporters P-glycoprotein (P-gp/ABCB1) and multidrug resistance protein 1 (MRP1/ABCC1)” (J Med Chem, 2012)

Assay: Inhibition of P-gp expressed in MDCK2-MDR1 cells by calcein AM accumulation assay
Assay type: cell-based
Conditions: MDCK-II
How it was run: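 MDCKII cells transfected with wild-type human MDR1, seeded at 40000 cells/well and used on day 4. Washed in DPBS with 10 mM HEPES pH 7.4, then compound in the same buffer 30 min at 37 °C. Replaced with compound plus 0.5 μg/mL calcein AM for a further 20 min. Fluorescence read at Ex 485/Em 530 nm. Signal expressed relative to 5 μM LSN 335984, taken as complete inhibition; vehicle 0.25% DMSO. IC50 from 1:1 serial dilutions by variable-slope sigmoidal fit.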

O[C@@H](COc1cccc2ncccc12)CN1CCN([C@@H]2c3ccccc3[C@@H]3[C@H](c4ccccc42)C3(Cl)Cl)CC1
IC50: 400 nM
